Molecular target: T1, NSD2 (Homo sapiens, UniProt O96028)
T1 sequence (O96028 1-1365): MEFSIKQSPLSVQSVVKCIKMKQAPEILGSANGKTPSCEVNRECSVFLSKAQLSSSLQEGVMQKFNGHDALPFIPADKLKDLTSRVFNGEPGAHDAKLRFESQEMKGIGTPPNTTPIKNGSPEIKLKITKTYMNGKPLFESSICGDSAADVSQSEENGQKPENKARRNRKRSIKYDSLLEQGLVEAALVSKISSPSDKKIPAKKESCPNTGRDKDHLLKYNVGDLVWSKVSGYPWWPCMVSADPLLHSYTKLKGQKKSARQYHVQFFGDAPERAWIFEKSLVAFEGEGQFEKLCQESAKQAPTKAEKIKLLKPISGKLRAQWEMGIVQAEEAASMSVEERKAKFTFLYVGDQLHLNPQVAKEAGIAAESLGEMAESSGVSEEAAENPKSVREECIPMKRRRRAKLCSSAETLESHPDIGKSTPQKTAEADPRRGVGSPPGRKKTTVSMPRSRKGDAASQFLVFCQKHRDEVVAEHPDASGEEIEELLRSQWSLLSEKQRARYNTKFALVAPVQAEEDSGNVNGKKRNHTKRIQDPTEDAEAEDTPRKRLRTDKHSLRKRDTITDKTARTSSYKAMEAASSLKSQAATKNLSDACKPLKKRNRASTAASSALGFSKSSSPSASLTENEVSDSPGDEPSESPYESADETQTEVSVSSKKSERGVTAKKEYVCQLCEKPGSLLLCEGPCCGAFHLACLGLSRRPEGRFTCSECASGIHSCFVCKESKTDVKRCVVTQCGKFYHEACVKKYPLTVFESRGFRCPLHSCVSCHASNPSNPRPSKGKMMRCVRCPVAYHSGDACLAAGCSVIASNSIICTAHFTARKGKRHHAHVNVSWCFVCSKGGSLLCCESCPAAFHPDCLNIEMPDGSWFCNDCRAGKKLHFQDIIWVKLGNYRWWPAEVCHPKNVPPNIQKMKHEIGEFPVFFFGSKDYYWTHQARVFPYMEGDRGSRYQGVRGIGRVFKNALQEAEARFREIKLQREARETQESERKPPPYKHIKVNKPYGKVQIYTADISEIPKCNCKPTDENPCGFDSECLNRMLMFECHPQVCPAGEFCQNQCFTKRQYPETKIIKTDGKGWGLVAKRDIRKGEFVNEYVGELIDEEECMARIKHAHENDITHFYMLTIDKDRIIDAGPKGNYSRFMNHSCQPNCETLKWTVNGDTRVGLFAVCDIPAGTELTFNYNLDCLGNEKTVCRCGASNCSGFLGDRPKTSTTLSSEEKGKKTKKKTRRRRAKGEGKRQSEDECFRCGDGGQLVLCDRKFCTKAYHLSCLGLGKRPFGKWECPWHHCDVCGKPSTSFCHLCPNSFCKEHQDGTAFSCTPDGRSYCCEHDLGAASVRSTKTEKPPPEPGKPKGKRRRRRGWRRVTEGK
Test: HMT panel profiling
Assay type: biochemical

Nc1ncnc2c1ncn2[C@@H]1O[C@H](CSCC[C@H](N)C(=O)O)[C@@H](O)[C@H]1O [SAH, S-adenosyl-homocysteine] showed an IC50 of 7.49 µM.
